Values of other authors in patent US5891842A, “Methodology for eliciting an analgesic response in a living subject” (priority 1996, dated 1999).

Conditions: cited from earlier work

In the case of `CN1CC[C@]23c4c5ccc(O)c4O[C@H]2C(=O)CC[C@H]3[C@H]1C5` [Hydromorphone, dihydromorphinone], the “DURATION OF ACTION” value (analgesic effects after subcutaneous administration) is given as 4 to 5 h and the “DOSE: amount given subcutaneously that produces approximately the same analgesic effects as 10 mg of morphine” value (subcutaneous) is given as 1.5 mg.
